Antibody variant affinities, Ab-14 light chain, assay B

Values reported by Li et al. 2023, doi:10.1038/s41467-023-39022-2 (FLAb copy).

All variants were tested on one target, the spike HR2 peptide PDVDLGDISGINAS (SARS-CoV-2).

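Phage display of a naive human antibody library on the peptide gave the parent. The variants were designed computationally from a first round of random CDR variants and then made and measured. Their group label is 14L_Ctrl (Ctrl: baseline library sampled from a position-specific scoring matrix, with some repeated check sequences). The assay is AlphaSeq: two haploid yeast populations carry antibody and antigen on their surface. Pairs that bind mate more often; barcode pairs of the diploids are counted by sequencing. Read counts were normalised to the haploid input and turned into Kd by a linear fit to BCL2-family pairs of known affinity, for each replicate. There are six technical replicates.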

Parent scFv Ab-14: VH joined to VL by a (GGGGS)3 linker. Changes lie in the light chain CDRs alone.
VH: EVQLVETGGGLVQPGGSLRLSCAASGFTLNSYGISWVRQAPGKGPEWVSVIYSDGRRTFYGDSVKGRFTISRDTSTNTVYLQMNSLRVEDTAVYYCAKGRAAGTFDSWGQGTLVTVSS
VL: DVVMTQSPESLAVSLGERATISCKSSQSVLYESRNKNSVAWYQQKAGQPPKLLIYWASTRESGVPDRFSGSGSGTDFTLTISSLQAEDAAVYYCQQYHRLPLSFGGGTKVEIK

Variants are written as CDR1, CDR2 and CDR3 of the light chain (limits as in the source). Parent: KSSQSVLYESRNKNSVA, WASTRES, QQYHRLPLS.
Affinities are written as log10 Kd with Kd in nM; a lower number is a better binder.
Where no diploid with the target was found in that replicate, the entry reads "ND": below detection, most likely a poor binder, though not proof of it.

| CDR-L1 | CDR-L2 | CDR-L3 | replicates, log10 nM | empty controls |
|---|---|---|---|---|
| KSSQSVKYESVNKNSVA | HASTRES | QQTMRWPLS | 0.81 ND ND ND ND ND | 1/18 (0.27) |
| KMDQSVLYESRNKNSVA | WASTRER | QQYGRLPLS | 0.53 0.44 0.33 0.22 0.31 0.49 | 2/18 (3.14) |
| KSSQSVLNESRNKNSVA | WASTRES | QQYHRLPLQ | 1.64 1.70 2.51 1.47 2.25 2.26 | 1/18 (3.97) |
| QSSQSVLYEFRNKNSVA | SASTRES | QQYKILPLS | ND ND ND 1.50 ND ND | 0/18 |
| VSSQSVLYESRNKNSVA | SASTRES | QQYHRLPLS | ND 1.98 2.42 ND 2.82 2.83 | 2/18 (2.01) |
| KSSQSVLYENRCKYSVA | WASTREA | QQYHRLPLS | ND ND 0.34 ND ND 1.83 | 0/18 |
| KSSQSVLYESRNKNSVA | AASERED | QQYHRLPLS | 1.88 1.66 1.48 2.19 1.90 2.78 | 2/18 (2.84) |
| KSSQSVLYESANKNVVA | GASTAES | QQYHRLELS | ND ND ND ND ND ND | 0/18 |
| KISESVLYESTNKNSVA | WASTRPS | QQYHKLPLS | ND 1.30 ND 2.63 2.45 1.64 | 0/18 |
| KSSQSVLYEHRNTNSVA | WASTRES | QQYYRLPLS | 0.57 2.78 0.73 ND 0.74 2.37 | 0/18 |
| DSSQSVLYESRNKNSVA | WASTREQ | QQYHRLMLS | ND ND 3.51 2.04 1.63 2.12 | 0/18 |
| KSSQSVLYQSANKNSVA | AASTRES | QQYHRLPLS | 0.08 0.23 0.43 0.18 0.08 0.37 | 1/18 (2.04) |
| KSSNSELYESRNKNSVA | MASTRES | QQYHVLLLS | ND ND ND ND ND ND | 0/18 |
| KSSQSVWWESRNKNSVA | EASTRES | QCYHRLPLS | 0.88 1.23 1.25 0.97 1.13 1.26 | 0/18 |
| KSSQQVLYESRNANSVA | WASTRES | QQYHRLPLS | ND ND ND ND ND ND | 0/18 |
| KSSQSVLYESRNKNSVA | NASLRES | QQYHRLPLS | 1.28 0.81 0.43 0.99 0.52 0.98 | 0/18 |
| FSSQSVLYESRNKNSVA | NASTRES | QQYHRLPLS | 1.05 0.81 0.89 0.97 0.90 0.98 | 5/18 (2.79) |
| KSSQQVLYESRNKNSVA | SASTRES | QQYHRLPLS | 0.94 0.68 0.53 0.48 0.60 1.05 | 1/18 (2.19) |
| KSSYSVLYESFNKNSVA | WASTRES | QQYHRLPLS | ND 2.58 1.99 ND 3.03 2.14 | 0/18 |
| KMSQSVLYESRNKNSVA | WASTRES | QQYHRLPLM | 1.12 0.70 0.47 0.86 1.12 0.60 | 0/18 |
| CSSQSVLYEARNKNSVA | WASTRES | QQYHRLPIS | ND 1.52 ND ND ND ND | 1/18 (1.94) |
| KSSQSVPYESRNNNSVA | WASTRES | QQCHRLPLS | 2.12 2.47 1.87 3.23 2.15 ND | 0/18 |
| KISQSVLYESRNKNSVA | WASTRES | QQYHRLPLW | 1.44 1.04 0.47 1.59 1.08 0.94 | 1/18 (2.49) |
| KSSQSVLYESTNKYSVA | WASTRES | QQYHRLPLS | 2.18 ND 1.82 1.71 2.24 2.27 | 0/18 |
| KSSQSLQYESANKNSVA | GASTRES | QQYHRLTLS | ND ND ND ND 2.35 ND | 0/18 |
| KSGQSVLYESTNMNSVA | WASTRES | QQYHRLPLS | ND 1.44 2.50 0.84 2.19 ND | 1/18 (1.72) |
| KSSQSVLYESNNKNSVA | YGSTRES | QQYHRLPLS | 1.57 1.41 1.64 0.90 0.98 1.37 | 2/18 (3.31) |
| KSSQSVLEESRNKNSVA | GASTRVS | QQYHRLPLS | 0.81 0.35 0.41 0.43 0.26 0.54 | 0/18 |
| KSSQSVLYESRNSNQVA | EASTREC | QQVHRLPLS | 2.19 0.89 0.80 1.14 0.98 1.12 | 0/18 |
| KSSQSVGYESRNKNQVA | WASTRES | QQYARLPLS | 1.29 1.92 2.01 1.71 2.08 1.04 | 0/18 |
| KCSQSVLYESRNCNSVA | GASTRES | QQYHRLPLS | 0.35 0.18 0.32 0.32 0.33 0.29 | 4/18 (3.60) |
| KSSQSVLYEDNNKNSVA | WASTRES | QQYHRLGLK | 1.91 1.98 1.11 ND 2.09 1.78 | 0/18 |
| KSSQTVLYESRNKNSVA | WASQRES | QQYQRLPLS | ND ND ND ND ND ND | 0/18 |
| KSSQSFLAESRNKNSVA | WASTRES | CQYHRLPLS | ND ND ND ND ND ND | 0/18 |
| KSSQTLLYNSRNKNSVA | WASTRES | QQYHRLPLS | 2.60 2.19 2.04 2.55 2.11 1.50 | 2/18 (2.40) |
| MVSQSVEYESRNKNSVA | EASTRES | QQYHRLPLS | 0.16 0.12 -0.44 0.23 0.13 -0.11 | 0/18 |
| KSSQPVLYESRNKNSVA | KASTRED | QQYHRLPLT | ND ND ND ND 1.84 ND | 0/18 |
| KSSQSVLYESRNKNSVA | WASTRES | QQYHRAPLS | ND ND ND ND ND ND | 0/18 |
| KNSQSVLYESRNKNSVA | WASTRES | QQYHYLPNS | ND ND ND ND ND ND | 0/18 |
| KSHASVAYEYDNKNSVA | WASTRES | QQYHRLPLS | 1.27 1.21 1.69 1.39 1.81 0.83 | 3/18 (2.04) |
| KSSQIVLYESRNKNSVA | KASTRES | QQYHRLPLS | 0.83 1.51 1.06 1.43 1.38 1.18 | 0/18 |
| KSSQSNLYESRNKNSVA | EASTREN | QQYHRLPLS | 0.74 0.54 0.45 0.37 0.36 0.70 | 1/18 (2.31) |
| ASSQSHRYESRNKNSVA | WASTRES | QQYHRLPLS | ND ND ND ND ND ND | 0/18 |
| KSSQSVLYESINKNSVA | WASTRES | QQYHRLELS | ND 0.78 0.44 0.65 ND 0.93 | 0/18 |
| KSSQSVLYESRNYNCVA | WASTRED | QQYHRLPLA | ND ND ND ND ND ND | 0/18 |
| KSSQSVLYESRNKNSVA | NASTRES | QQQHRLPLS | ND ND 2.24 ND ND 2.89 | 2/18 (3.35) |
| KSSQSVLYESRNSNSVA | SASTRES | QQYHRLPLF | 0.56 0.38 0.53 0.28 0.16 0.42 | 0/18 |
| KSSQHVLEESRNKNSVA | QASTRES | QQYHRLPLS | 0.53 0.40 0.64 0.34 0.51 0.35 | 0/18 |
| KISQSVPYESRNKNSVA | QASTRES | QQYHRLPLS | 0.49 -0.02 -0.02 -0.10 0.01 0.36 | 0/18 |
| KSSQSVAYNSRNKNSVA | WASTRES | QQYHRLELS | ND ND ND ND ND ND | 0/18 |
| KCSQSVLYESRNGNSVA | WASTREH | QQYHRLPLS | 1.36 2.03 1.54 2.82 1.25 2.11 | 1/18 (3.11) |

Picked from the list: the 6 lowest averages where every replicate gave a value.

{"CDR-L1": "MVSQSVEYESRNKNSVA", "CDR-L2": "EASTRES", "CDR-L3": "QQYHRLPLS", "replicates, log10 nM": "0.16 0.12 -0.44 0.23 0.13 -0.11", "empty controls": "0/18"}
{"CDR-L1": "KISQSVPYESRNKNSVA", "CDR-L2": "QASTRES", "CDR-L3": "QQYHRLPLS", "replicates, log10 nM": "0.49 -0.02 -0.02 -0.10 0.01 0.36", "empty controls": "0/18"}
{"CDR-L1": "KSSQSVLYQSANKNSVA", "CDR-L2": "AASTRES", "CDR-L3": "QQYHRLPLS", "replicates, log10 nM": "0.08 0.23 0.43 0.18 0.08 0.37", "empty controls": "1/18 (2.04)"}
{"CDR-L1": "KCSQSVLYESRNCNSVA", "CDR-L2": "GASTRES", "CDR-L3": "QQYHRLPLS", "replicates, log10 nM": "0.35 0.18 0.32 0.32 0.33 0.29", "empty controls": "4/18 (3.60)"}
{"CDR-L1": "KMDQSVLYESRNKNSVA", "CDR-L2": "WASTRER", "CDR-L3": "QQYGRLPLS", "replicates, log10 nM": "0.53 0.44 0.33 0.22 0.31 0.49", "empty controls": "2/18 (3.14)"}
{"CDR-L1": "KSSQSVLYESRNSNSVA", "CDR-L2": "SASTRES", "CDR-L3": "QQYHRLPLF", "replicates, log10 nM": "0.56 0.38 0.53 0.28 0.16 0.42", "empty controls": "0/18"}

The parent sequence was in this pool as ten entries: three were never detected, three once, and four in most replicates, with averages from 0.34 to 2.37.
As a blank, each scFv also met three strains without target: over all light chain designs, 4% of these pairings were detected, typically at 2.64 and seldom below 1.59. For each scFv, signals with the empty controls are counted beside the result, with their mean in brackets.
The authors averaged sequences with at least three values out of six and counted those with two or fewer as poor binders.
Values of this round are not directly comparable with the first-round values of the same sequences.